## Permeability data for macrocyclic peptides

PAMPA measures passive passage through an artificial lipid membrane. Values are log10 P with P in cm/s, so -5 is more permeable than -7.

| structure (SMILES) | PAMPA (log10 cm/s) |
|---|---|
| CCCN1CC(=O)N[C@@H](CC(C)C)C(=O)N[C@@H](CC(C)C)C(=O)N2CCC[C@H]2C(=O)N(C)[C@@H](CC(C)C)C(=O)N[C@@H](Cc2ccccc2)C(=O)N2CCC[C@H]2C1=O | -5.78 |
| CC(C)C[C@@H]1NC(=O)[C@@H]2CCCN2C(=O)[C@H](CC(C)C)N(C)C(=O)[C@H](CC(C)C)N(C)C(=O)[C@@H](C)NC(=O)[C@H]2CCCN2C(=O)[C@H](Cc2ccccc2)NC1=O | -5.61 |
| CC(C)C[C@@H]1C(=O)N[C@@H](Cc2ccccc2)C(=O)N2CCC[C@@H]2C(=O)N[C@H](C)C(=O)N(C)[C@@H](CC(C)C)C(=O)N[C@H](CC(C)C)C(=O)N2CCC[C@@H]2C(=O)N1C | -6.85 |
| CC(C)C[C@@H]1NC(=O)[C@H](CC(C)C)N(C)C(=O)[C@@H](C)NC(=O)[C@H](Cc2ccccc2)NC(=O)[C@@H](CC(C)C)NC(=O)[C@@H]2CCCN2C1=O | -5.83 |
| CC(C)C[C@@H]1C(=O)N2CCC[C@H]2C(=O)N(C)[C@@H](CC(C)C)C(=O)N[C@@H](Cc2ccccc2)C(=O)N2CCC[C@@H]2C(=O)N[C@@H](Cc2ccccc2)CC(=O)N[C@H](CC(C)C)C(=O)N1C | -5.31 |
| CC(C)C[C@@H]1C(=O)N[C@@H](Cc2ccccc2)C(=O)N2CCC[C@@H]2C(=O)N[C@@H](Cc2ccccc2)CC(=O)N(C)[C@@H](CC(C)C)C(=O)N(C)[C@@H](CC(C)C)C(=O)N2CCC[C@@H]2C(=O)N1C | -5.24 |
| CC(C)C[C@@H]1NC(=O)[C@@H](CC(C)C)N(C)C(=O)[C@@H](C)NC(=O)[C@H]2CCCN2C(=O)[C@H](Cc2ccccc2)NC(=O)CN(Cc2ccccc2)C(=O)[C@H]2CCCN2C1=O | -5.33 |
| CC(C)C[C@@H]1C(=O)N[C@@H](Cc2ccccc2)C(=O)N2CCC[C@@H]2C(=O)N[C@H](C)C(=O)N[C@H](CC(C)C)C(=O)N[C@@H](Cc2ccccc2)CC(=O)N2CCC[C@@H]2C(=O)N1C | -6.05 |
| CC(C)C[C@@H]1NC(=O)[C@H](C)N(C)C(=O)[C@H]2CCCN2C(=O)[C@H](Cc2ccccc2)NC(=O)CN(Cc2ccccc2)C(=O)[C@H]2CCCN2C(=O)[C@H](CC(C)C)N(C)C1=O | -5.01 |
| CC(C)C[C@@H]1NC(=O)[C@H](C)NC(=O)[C@@H]2CCCN2C(=O)[C@H](Cc2ccccc2)NC(=O)CN(Cc2ccccc2)C(=O)[C@@H]2CCCN2C(=O)[C@@H](CC(C)C)N(C)C1=O | -5.95 |
| CC(C)C[C@@H]1NC(=O)[C@@H](CC(C)C)NC(=O)[C@H](C)N(C)C(=O)[C@H]2CCCN2C(=O)[C@H](Cc2ccccc2)NC(=O)[C@@H](CC(C)C)N(C)C(=O)[C@@H]2CCCN2C1=O | -5.67 |
| CCCN1CC(=O)N(C)[C@H](CC(C)C)C(=O)N(C)[C@@H](CC(C)C)C(=O)N2CCC[C@@H]2C(=O)N(C)[C@H](CC(C)C)C(=O)N[C@@H](Cc2ccccc2)C1=O | -5.09 |
| CC(C)C[C@@H]1NC(=O)[C@H](C)NC(=O)[C@H]2CCCN2C(=O)[C@H](Cc2ccccc2)NC(=O)[C@H](CC(C)C)NC(=O)[C@@H]2CCCN2C(=O)[C@H](CC(C)C)NC1=O | -6.45 |
| CCCN1CC(=O)N[C@H](CC(C)C)C(=O)N[C@@H](CC(C)C)C(=O)N2CCC[C@@H]2C(=O)N[C@@H](CC(C)C)C(=O)N[C@@H](Cc2ccccc2)C(=O)N2CCC[C@H]2C1=O | -5.91 |
| CCCN1CC(=O)N[C@H](CC(C)C)C(=O)N[C@@H](Cc2ccccc2)CC(=O)N2CCC[C@@H]2C(=O)N[C@H](CC(C)C)C(=O)N[C@@H](Cc2ccccc2)C(=O)N2CCC[C@@H]2C1=O | -5.76 |
| CC(C)C[C@@H]1NC(=O)C[C@H](Cc2ccccc2)NC(=O)[C@@H]2CCCN2C(=O)[C@H](Cc2ccccc2)NC(=O)[C@H](CC(C)C)N(C)C(=O)[C@@H]2CCCN2C(=O)[C@H](CC(C)C)N(C)C1=O | -5.28 |

A selection of 3 entries from above:

{"smiles": "CC(C)C[C@@H]1NC(=O)[C@@H](CC(C)C)N(C)C(=O)[C@@H](C)NC(=O)[C@H]2CCCN2C(=O)[C@H](Cc2ccccc2)NC(=O)CN(Cc2ccccc2)C(=O)[C@H]2CCCN2C1=O", "PAMPA (log10 cm/s)": "-5.33"}
{"smiles": "CC(C)C[C@@H]1NC(=O)[C@H](C)NC(=O)[C@H]2CCCN2C(=O)[C@H](Cc2ccccc2)NC(=O)[C@H](CC(C)C)NC(=O)[C@@H]2CCCN2C(=O)[C@H](CC(C)C)NC1=O", "PAMPA (log10 cm/s)": "-6.45"}
{"smiles": "CCCN1CC(=O)N[C@@H](CC(C)C)C(=O)N[C@@H](CC(C)C)C(=O)N2CCC[C@H]2C(=O)N(C)[C@@H](CC(C)C)C(=O)N[C@@H](Cc2ccccc2)C(=O)N2CCC[C@H]2C1=O", "PAMPA (log10 cm/s)": "-5.78"}

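The data file gives no further conditions (lipid, pH, time, direction or concentration), and values from different papers need not be comparable. Other peptides of the study may be missing here. Entries at the database's floor value (log10 P of -10) are not listed.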

Values of Townsend et al. 2020, doi:10.26434/chemrxiv.13335941.v1, as listed in CycPeptMPDB.